Experimental data from PubChem BioAssay (NCATS).
Only a part is listed here, and it is no random draw. Inconclusive results are not listed. The source made the active and inactive calls. Unless noted, the call rests on the fitted dose curve; in most records, active means well fitted curve in the direction sought with a large enough effect; inconclusive means small, poorly fitted or top-dose-only effect, or another doubt; inactive means no such curve, though single readings can be large; an effect the other way counts as inactive or inconclusive.

Amino acid sequences for entries named in this document (tags omitted).
UniProt Q07343, whole entry: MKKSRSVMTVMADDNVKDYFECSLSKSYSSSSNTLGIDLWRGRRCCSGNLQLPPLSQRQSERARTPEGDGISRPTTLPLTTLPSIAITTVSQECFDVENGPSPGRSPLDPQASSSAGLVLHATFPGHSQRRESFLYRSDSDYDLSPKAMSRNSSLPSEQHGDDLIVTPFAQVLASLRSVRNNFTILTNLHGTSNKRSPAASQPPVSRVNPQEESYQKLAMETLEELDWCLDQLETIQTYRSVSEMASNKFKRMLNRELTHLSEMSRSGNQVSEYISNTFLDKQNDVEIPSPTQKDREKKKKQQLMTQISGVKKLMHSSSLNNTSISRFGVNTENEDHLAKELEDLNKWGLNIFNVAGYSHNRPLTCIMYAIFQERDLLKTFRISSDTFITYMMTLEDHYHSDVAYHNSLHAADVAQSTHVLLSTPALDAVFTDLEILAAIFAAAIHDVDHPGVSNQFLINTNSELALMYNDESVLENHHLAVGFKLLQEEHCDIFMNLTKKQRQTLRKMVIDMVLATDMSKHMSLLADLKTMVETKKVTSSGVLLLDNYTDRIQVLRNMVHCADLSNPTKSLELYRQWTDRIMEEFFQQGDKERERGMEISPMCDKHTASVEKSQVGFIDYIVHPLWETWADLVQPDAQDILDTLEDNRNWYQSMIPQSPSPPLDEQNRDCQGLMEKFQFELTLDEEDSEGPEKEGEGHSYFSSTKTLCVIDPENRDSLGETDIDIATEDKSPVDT

Key:
[1] = Cell Viability - N2a (AID 540); conditions: N2a mouse neuroblastoma cell viability; at 92.2 µM (top of the series);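 further: plate controls were DMSO alone for no effect and tamoxifen control for full effect; nearly all actives have a fitted effect of over 45% in size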
Summary of the method: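 N2a mouse neuroblastoma, 1500 cells/well, 5 hr settle; compound 40 hr, 37 °C; CellTiter-Glo 20 min RT; luminescence; Hill-fit AC50.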

[2] = Cell Viability - NIH 3T3 (AID 541);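 further: cells exposed to compound for 40 hours; nearly all actives have a fitted effect of over 25% in size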; further: potency means the concentration at half of the fitted maximal effect;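 on activity change, negative = cytotoxicity: plate controls were DMSO alone for no effect and tamoxifen positive control for full effect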
Summary of the method: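 qHTS format; 40 hr compound exposure, 37 °C; CellTiter-Glo luminescence (cellular ATP) read-out after 20 min at RT. Decrease in ATP = cytotoxicity; AC50 from standard Hill fit.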

[3] = Cell Viability - HUV-EC-C (AID 542); conditions: HUV-EC-C endothelial cell viability, qHTS; at 92.2 µM (top of the series);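 further: cells exposed to compound for 40 hours; on the % scale 0 is the no-effect control and ±100 the full control effect; nearly all actives have a fitted effect of over 35% in size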
Summary of the method: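 Luminescent ATP read-out (CellTiter-Glo, 20 min room temperature) after 40 hr compound treatment of HUV-EC-C cells at 37 °C. Concentration-response data fitted with the standard Hill equation to give AC50; tamoxifen and doxorubicin served as positive controls.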

[4] = Cell Viability - H-4-II-E (AID 543); conditions: H-4-II-E rat hepatoma viability; at 92.2 µM (top of the series);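 further: cells exposed to compound for 40 hours; on the % scale 0 is the no-effect control and ±100 the full control effect; nearly all actives have a fitted effect of over 35% in size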
Summary of the method: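 qHTS, rat hepatoma H-4-II-E, 1500 cells/well; 40 hr compound exposure, 37 °C; CellTiter-Glo ATP luminescence after 20 min RT; AC50 by standard Hill fit.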

[5] = Cell Viability - SH-SY5Y (AID 544); conditions: SH-SY5Y neuroblastoma cell viability; at 92.2 µM (top of the series);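 further: cells exposed to compound for 40 hours; nearly all actives have a fitted effect of over 55% in size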
Summary of the method: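 SH-SY5Y, 1500 cells/well, 5 hr pre-incubation 37 °C; cpd 40 hr 37 °C; CellTiter-Glo 20 min RT; luminescence (ATP) read. qHTS concentration-response, Hill fit → AC50. Tamoxifen, doxorubicin as positive controls.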

[6] = Cell Viability - Renal Proximal Tubule (AID 545); conditions: renal proximal tubule cells viability, primary cells of rat origin; at 91.7 µM (top of the series);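 further: cells exposed to compound for 40 hours; nearly all actives have a fitted effect of over 40% in size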
Summary of the method: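 Rat kidney proximal tubule cells, freshly isolated; 1000 cells/well, 5 hr settle, compound 40 hr 37 °C. CellTiter-Glo 20 min RT, luminescence read. AC50 by standard Hill fit.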

[7] = Cell Viability - Mesenchymal (AID 546); conditions: mesenchymal cells viability, qHTS; at 91.7 µM (top of the series);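 further: cells exposed to compound for 40 hours before reading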
Summary of the method: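 Human renal mesenchymal cells (glomerulus-derived), 1000 cells/well, 5 hr 37 °C pre-incubation; compound 40 hr, 37 °C; CellTiter-Glo, 20 min RT; luminescence; AC50 via Hill equation.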

[8] = Cellular Toxicity (caspase-3) HepG2 (AID 654); conditions: HepG2 caspase-3 activation, luminescence, 0% = DMSO only, 100% = tamoxifen; at 92.2 µM (top of the series);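 further: cells exposed to compound for 16 hours before reading; 0% = DMSO alone and 100% = caspase signal from 100 µM tamoxifen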
Summary of the method: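 Luminescent Caspase-Glo 3/7 readout after 16 hr compound exposure of human hepatocellular carcinoma HepG2 cells at 37 °C; qHTS concentration-response, normalized DMSO = 0%, 100 uM tamoxifen = 100%; AC50 by standard Hill equation.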

[9] = Cellular Toxicity (caspase-3) Jurkat (AID 655); conditions: Jurkat caspase-3 activation, luminescence, DMSO = 0%, tamoxifen = 100%; at 92.2 µM (top of the series);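 further: cells exposed to compound for 16 h at 37 °C before reading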
Summary of the method: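 Luminescent caspase-3/7 readout (aminoluciferin substrate cleavage) in human T-cell leukemia Jurkat cells after 16 hr compound exposure. Concentration-response normalized to DMSO and 100 uM tamoxifen; AC50 by standard Hill equation.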

[10] = Cellular Toxicity (caspase-3) HUV-EC-C (AID 656); conditions: HUV-EC-C cells, caspase-3 activation (apoptosis), vehicle = 0, 100 µM tamoxifen = 100%; at 92.2 µM (top of the series)
Summary of the method: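 Luminescent caspase-3/7 activation (aminoluciferin substrate cleavage) in HUV-EC-C cells after 16 hr compound exposure, 37°C. Signal normalized to DMSO basal and 100 uM tamoxifen as 100%; AC50 from concentration-response fitted with the Hill equation.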

[11] = Cellular Toxicity (caspase-3) SHSY5Y (AID 657); conditions: SH-SY5Y caspase-3 activation, DMSO zero, 10 µM staurosporine = 100%; at 91.7 µM (top of the series);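 further: cells exposed to compound for 16 hours at 37 °C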
Summary of the method: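 Luminescent caspase-3/7 readout (aminoluciferin release) in SH-SY5Y cells after 16 h compound exposure in complete medium. Activity scaled between DMSO basal and 10 uM staurosporine as 100%; concentration-response fitted to Hill equation for AC50.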

[12] = Cellular Toxicity (caspase-3) BJ (AID 658); conditions: BJ fibroblasts, luminescence, normalized: DMSO 0%, staurosporine 100%; at 91.7 µM (top of the series);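 further: cells exposed to compound for 16 hours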
Summary of the method: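 qHTS, BJ fibroblasts, 1000 cells/well; 5 hr preincubation, 16 hr compound, 37 °C; Caspase-Glo 3/7 reagent, 1 hr RT; luminescence. DMSO = 0%, 10 uM staurosporine = 100%. Hill-equation AC50.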

[13] = Cellular Toxicity (caspase-3) MRC-5 (AID 659); conditions: MRC-5 cells, luminescence, normalized: DMSO 0%, 10 µM staurosporine 100%; at 91.7 µM (top of the series)
Summary of the method: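 MRC-5 fibroblasts, 1500/well; 16 h cpd, 37 °C; Caspase-Glo 3/7, 1 h RT; lumi read. Norm: DMSO = 0%, 10 uM staurosporine = 100%. Hill-fit AC50 from qHTS conc-response.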

[14] = Cellular Toxicity (caspase-3) Mesangial (AID 660); conditions: mesangial cells, normalized: DMSO 0%, 100 µM tamoxifen 100%; at 91.7 µM (top of the series);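 further: combined caspase 3 and 7 activity read by Caspase-Glo luminescence; cells exposed to compound for 16 h before the caspase read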
Summary of the method: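 Luminescent Caspase-Glo 3/7 readout (aminoluciferin substrate cleavage, 20 min RT) after 16 h compound exposure at 37 °C of normal human mesangial cells. Signal increase normalized between DMSO basal and 100 uM tamoxifen; Hill-equation AC50.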

[15] = Cellular Toxicity (caspase-3) SK-N-SH (AID 661); conditions: SK-N-SH caspase-3 activation, qHTS, DMSO as zero, staurosporine as full; at 91.7 µM (top of the series);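 further: cells exposed to compound for 16 hours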
Summary of the method: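 Luminescent Caspase-Glo 3/7 read-out after 16 hr compound exposure of SK-N-SH neuroblastoma cells at 37 °C. Signal increase normalized to DMSO (basal) and 10 uM staurosporine (100%); AC50 from Hill equation fits of qHTS concentration-response data.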

[16] = Cellular Toxicity (caspase-3) H-4-II-E (AID 663); conditions: H-4-II-E rat hepatoma, scaled: DMSO 0%, 100 µM tamoxifen 100%; at 92.2 µM (top of the series);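 further: cells exposed to compound for 16 hr before readout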
Summary of the method: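 H-4-II-E rat hepatoma, 1500 cells/well, 5 hr settle at 37 °C; compound 16 hr, 37 °C, complete medium; Caspase-Glo 3/7, 20 min RT; luminescence. DMSO = 0%, 100 uM tamoxifen = 100%; Hill-equation AC50.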

[17] = AP1 Signaling Pathway (AID 357; active means well fitted curve in either direction with a large enough effect, not every such curve was filed as active;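 further: ME-180 reporter cells stimulated with EGF at its EC50 level; on the % scale 0 is the no-effect control and ±100 the full control effect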); conditions: ME-180 AP-1-bla reporter, EGF-induced, beta-lactamase ratio, 5 h; at 7.69 µM (top of the series) unless noted
Summary of the method: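 First, ME-180 AP-1-bla cells were cultured overnight at 37 °C in low-serum Opti-MEM. Next, titrated compounds with EC50 EGF were incubated 5 hours. Finally, CCF4 was added for 2.5 hours and the 460/530 nm ratio recorded.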

[18] = NFAT Signaling Pathway (AID 444; active means well fitted curve in either direction with a large enough effect, not every such curve was filed as active;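 further: carbachol stimulus at about its EC50 of 1 µM final; on the % scale 0 is the no-effect control and ±100 the full control effect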); conditions: Jurkat NFAT-bla M1, carbachol, beta-lactamase ratio, 5 h; at 7.69 µM (top of the series) unless noted
Summary of the method: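 Jurkat cells with NFAT-driven β-lactamase reporter and co-expressed M1 receptor, stimulated with carbachol (final 1 uM, ~EC50), compound titration, 5 h at 37 °C. CCF4 loaded 1 h at RT; 460/530 nm ratio gave %activity and AC50.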

[19] = Stat Signaling Pathway (AID 446; active means well fitted curve in either direction with a large enough effect, not every such curve was filed as active;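 further: ME-180 cervical cancer cells given 40 pM IL-6 alongside compound; SIE-controlled beta-lactamase reporter measured as 460/530 nm FRET emission ratio; on the % scale 0 is the no-effect control and ±100 the full control effect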); conditions: ME-180 (cervical carcinoma) SIE beta-lactamase reporter, IL-6 stimulated, 5 h; at 38 µM (top of the series) unless noted
Summary of the method: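 FRET read-out (405 nm excitation, 460/530 nm emission) of a beta-lactamase reporter under a STAT-inducible element in ME-180 cervical carcinoma cells. Cells with compound receive 40 pM IL-6 for 5 h. Values are normalised to AC90 stimulation and AC90 JAK-inhibitor controls.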

[20] = biological target: 3',5'-cyclic-AMP phosphodiesterase 4B (Homo sapiens) (UniProt Q07343); experiment: qHTS Assay for Inhibitors of PDE-IV (AID 607; active means well fitted activation curve with a large enough effect in the main read-out, with a control signal flat, not every such curve was filed as active; further: % of control where 0% means no effect); conditions: HEK293 ACTOne CNG channel cells, membrane potential fluorescence; at 22.9 µM (top of the series)
Summary of the method: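 Cell-based read-out of cAMP via a modified cyclic nucleotide-gated channel and membrane potential dye (535/590 nm) in HEK293 cells expressing PDE4 endogenously. Compounds tested up to 22.9 uM final; 100 uM RO 20-1724 reference.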

In the case of `O=[N+]([O-])[O-].[NH4+]`, the activity change, negative = cytotoxicity [1] is reported as inactive: -0.432%, the Potency [2] is reported as “inactive” and the activity change, negative = cytotoxicity [3] is reported as inactive: 1.25%. For the same compound, the activity change, negative = cytotoxic [4] was inactive: -6.43%, the viability change, negative = cytotoxic [5] was inactive: -12.5% and the activity change, negative = cytotoxicity [6] was inactive: -0.846%. The activity change, negative = cytotoxicity [7] was inactive: -5.61%, the caspase-3 activation [8] was inactive: 1.24% and the caspase-3 activation [9] was inactive: -0.993%. The caspase-3 activation [10] was inactive: 0.542%, the caspase-3 activation [11] was inactive: 1.36% and the caspase-3 activation [12] was inactive: -0.785%. The caspase-3 activation [13] was inactive: 1.59%, the caspase-3 activation [14] was inactive: 0.97% and the caspase-3 activation [15] was inactive: -1.25%. The caspase-3 activation [16] was inactive: 0.41%.

In the case of `Cc1cccc([N+](=O)[O-])c1[N+](=O)[O-]`, the activity change, negative = cytotoxicity [1] is reported as inactive: -20.5%, the Potency [2] is reported as active: 5.01 µM and the activity change, negative = cytotoxicity [3] is reported as inactive: 1.15%. For the same compound, the activity change, negative = cytotoxic [4] was inactive: -28.8%, the viability change, negative = cytotoxic [5] was inactive: -22.6% and the activity change, negative = cytotoxicity [6] was inactive: 2.28%. The activity change, negative = cytotoxicity [7] was inactive: -2.61%, the caspase-3 activation [8] was inactive: 0.447% and the caspase-3 activation [9] was inactive: 5.92%. The caspase-3 activation [10] was inactive: -3.7%, the caspase-3 activation [11] was inactive: 1.28% and the caspase-3 activation [12] was inactive: 0.395%. The caspase-3 activation [13] was inactive: -1.92%, the caspase-3 activation [14] was inactive: 0.672% and the caspase-3 activation [15] was inactive: 0.128%. For the same compound, the caspase-3 activation [16] was inactive: 0.0975%.

With `[NH4+].[O-][Cl+3]([O-])([O-])[O-]` the activity change, negative = cytotoxicity [1] was inactive: -0.281%, the Potency [2] was “inactive” and the activity change, negative = cytotoxicity [3] was inactive: 7.14%. For the same compound, the activity change, negative = cytotoxic [4] was inactive: -2.5%, the viability change, negative = cytotoxic [5] was inactive: 8.76% and the activity change, negative = cytotoxicity [6] was inactive: -1.65%. For the same compound, the activity change, negative = cytotoxicity [7] was inactive: -6.63%, the caspase-3 activation [8] was inactive: 0.4% and the caspase-3 activation [9] was inactive: -0.48%. For the same compound, the caspase-3 activation [10] was inactive: -1.51%, the caspase-3 activation [11] was inactive: -3.2% and the caspase-3 activation [12] was inactive: -1.76%. The caspase-3 activation [13] was inactive: -1.35%, the caspase-3 activation [14] was inactive: 0.346% and the caspase-3 activation [15] was inactive: 1.09%. The caspase-3 activation [16] was inactive: 0.907%.

For `NNC(NN)NN.n1nc(-c2nn[nH]n2)n[nH]1`, the activity change, negative = inhibition [17] was inactive: 28.1%, the activity change, negative = inhibition [18] was inactive: -23.2% and the activity, negative = inhibition [19] was inactive: 22.6% [at 7.69 µM]. The activation (PDE inhibition) [20] was inactive: -2.65%.

In the case of `N#[O+].[C-]#N.[C-]#N.[C-]#N.[C-]#N.[C-]#N.[Fe+2].[Na+].[Na+]`, the activity change, negative = inhibition [17] is reported as inactive: 17.9% [at 38 µM], the activity change, negative = inhibition [18] is reported as inactive: 7.16% [at 38 µM] and the activity, negative = inhibition [19] is reported as inactive: 2.88%. For the same compound, the activation (PDE inhibition) [20] was inactive: -1.12%.

In the case of `Cc1ccc([N+](=O)[O-])c([N+](=O)[O-])c1`, the Potency [2] is reported as active: 7.94 µM, the activity change, negative = cytotoxicity [3] is reported as inactive: -12.3% and the viability change, negative = cytotoxic [5] is reported as inactive: -28.8%. For the same compound, the activity change, negative = cytotoxicity [7] was inactive: 0.719%, the caspase-3 activation [8] was inactive: 0.321% and the caspase-3 activation [9] was inactive: 11.2%. The caspase-3 activation [10] was inactive: -6.88%, the caspase-3 activation [11] was inactive: -2.18% and the caspase-3 activation [12] was inactive: 0.629%. The caspase-3 activation [13] was inactive: 1.48%, the caspase-3 activation [14] was inactive: -1.17% and the caspase-3 activation [15] was inactive: 1.05%. The caspase-3 activation [16] was inactive: 0.376%.

In the case of `C/C1=C2N=C(/C=C3N=C(/C(C)=C4\[N-][C@@](C)([C@H]5N=C1[C@@](C)(CCC(=O)NC[C@H](C)OP(=O)([O-])O[C@@H]1[C@H](O)[C@H](n6cnc7cc(C)c(C)cc76)O[C@@H]1CO)[C@@H]5CC(N)=O)[C@](C)(CC(N)=O)[C@H]4CCC(N)=O)[C@@](C)(CC(N)=O)[C@@H]\3CCC(N)=O)C(C)(C)[C@@H]/2CCC(N)=O.[C-]#N.[Co+3]`, the activity change, negative = inhibition [17] is reported as inactive: 2.28% [at 17.2 µM], the activity change, negative = inhibition [18] is reported as inactive: 0.216% [at 17.2 µM] and the activity, negative = inhibition [19] is reported as inactive: -4.4% [at 17.2 µM]. For the same compound, the activation (PDE inhibition) [20] was inactive: 13.8%.

In the case of `N1=C(c2nnc(-c3nn[nH]n3)nn2)NNN1`, the activity change, negative = inhibition [17] is reported as inactive: -9.45%, the activity change, negative = inhibition [18] is reported as inactive: 1.71% and the activity, negative = inhibition [19] is reported as inactive: 3.45% [at 7.69 µM]. The activation (PDE inhibition) [20] was inactive: 10.3%.
